Patent publication US11725217B2, “Methods to enhance myocardial regeneration and/or repair” (Regents of the University of Minnesota, priority 2018, dated 2023)

What was measured:
[1] = test system: isolated mouse neonatal cardiomyocytes; assay: Proliferation of cultured neonatal (P1) cardiomyocytes (cell number, EdU incorporation, Ki67, FACS); assay type: cell-based; conditions: CyA 5 μg/ml; n=4; p<0.05
day-60 hiPSC-CMs = assay: Proliferation of day-60 hiPSC-derived cardiomyocytes (EdU, Ki67); assay type: cell-based, human; conditions: n=3; p<0.05
Description: The media was then changed with RPMI/B27 minus insulin and BMP4 and FGF from d1-d2. On d3, the medium was changed with RPMI/B27 minus insulin and IWP-4. The differentiated cells were maintained in RPMI/B27 with insulin media from d5-d60. […] Immunohistochemical analysis was performed as described previously.

regenerating newt heart = conditions: n=6

## CC1=C2C[C@H]3[C@@H](CC=C4C[C@@H](O)CC[C@@]43C)[C@@H]2CC[C@]12O[C@@H]1C[C@H](C)CN[C@H]1[C@H]2C [CyA, Cyclopamine]
[1]
  cardiomyocyte proliferation (EdU incorporation): significant decrease
day-60 hiPSC-CMs
  proliferation of day 60 hiPSC-CMs: significant decrease
Regenerating newt heart; 21 dpi, p<0.05
  reduction in cardiomyocyte proliferation (EdU incorporation assay): 2 fold
Regenerating newt heart; 30 dpi, p<0.01
  reduction in cardiomyocyte proliferation (EdU incorporation assay): 2 fold

Where two headings read alike, the source gives them in different places.
